Reference: patent publication US20230302135A1

Chains of the proteins cited; added tags and fusions are not shown. A line that says so, or that is headed by a name, gives the form on record, which may keep a tag or linker. Residues count along the entry.
UniProt P48061, 22-89 limits assumed: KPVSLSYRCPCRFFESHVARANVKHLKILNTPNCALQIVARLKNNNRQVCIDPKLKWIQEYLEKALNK
hCXCR4/BMP2Rs-HAR (human), one chain, as listed by the source limits assumed: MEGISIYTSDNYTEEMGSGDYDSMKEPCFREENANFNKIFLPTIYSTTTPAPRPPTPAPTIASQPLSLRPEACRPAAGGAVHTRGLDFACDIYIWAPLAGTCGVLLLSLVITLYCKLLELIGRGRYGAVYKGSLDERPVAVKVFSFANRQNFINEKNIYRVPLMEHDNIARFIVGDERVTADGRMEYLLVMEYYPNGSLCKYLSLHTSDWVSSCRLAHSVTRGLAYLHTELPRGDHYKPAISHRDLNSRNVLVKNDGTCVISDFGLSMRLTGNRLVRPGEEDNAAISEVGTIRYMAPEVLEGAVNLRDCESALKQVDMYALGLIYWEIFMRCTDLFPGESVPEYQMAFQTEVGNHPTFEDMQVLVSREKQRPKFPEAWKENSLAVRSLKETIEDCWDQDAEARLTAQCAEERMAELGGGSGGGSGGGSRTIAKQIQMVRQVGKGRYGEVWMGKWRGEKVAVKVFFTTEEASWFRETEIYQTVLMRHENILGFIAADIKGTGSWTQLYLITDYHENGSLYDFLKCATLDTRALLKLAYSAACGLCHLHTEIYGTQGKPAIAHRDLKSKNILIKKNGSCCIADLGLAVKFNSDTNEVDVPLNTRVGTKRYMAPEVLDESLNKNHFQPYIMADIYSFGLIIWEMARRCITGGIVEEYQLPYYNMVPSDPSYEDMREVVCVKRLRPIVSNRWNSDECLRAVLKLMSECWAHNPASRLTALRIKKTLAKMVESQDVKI
hCXCR2/BMP2Rs-HAR (human), one chain, as listed by the source limits assumed: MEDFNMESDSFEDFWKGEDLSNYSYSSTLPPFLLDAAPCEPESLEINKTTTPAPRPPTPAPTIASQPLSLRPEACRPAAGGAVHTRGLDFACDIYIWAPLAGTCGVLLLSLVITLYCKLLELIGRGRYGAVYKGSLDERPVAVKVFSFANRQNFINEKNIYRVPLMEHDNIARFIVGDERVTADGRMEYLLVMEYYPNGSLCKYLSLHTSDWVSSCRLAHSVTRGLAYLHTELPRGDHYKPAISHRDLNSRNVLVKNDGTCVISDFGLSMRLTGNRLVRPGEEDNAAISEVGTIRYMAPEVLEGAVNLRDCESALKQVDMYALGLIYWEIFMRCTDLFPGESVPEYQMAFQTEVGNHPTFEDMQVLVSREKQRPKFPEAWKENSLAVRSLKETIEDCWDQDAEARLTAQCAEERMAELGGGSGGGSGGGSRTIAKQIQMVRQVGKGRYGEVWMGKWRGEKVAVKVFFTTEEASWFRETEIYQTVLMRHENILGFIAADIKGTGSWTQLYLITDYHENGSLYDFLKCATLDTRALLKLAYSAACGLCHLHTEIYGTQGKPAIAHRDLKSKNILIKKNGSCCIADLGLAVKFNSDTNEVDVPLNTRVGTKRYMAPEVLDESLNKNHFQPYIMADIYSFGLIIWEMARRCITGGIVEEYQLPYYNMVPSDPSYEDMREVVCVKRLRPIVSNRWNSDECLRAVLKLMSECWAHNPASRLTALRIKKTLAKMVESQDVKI

Experiments:
[1] = molecular target: hCXCR4/BMP2Rs-HAR (human); assay: cell-based or functional assay
[2] = molecular target: hCXCR2/BMP2Rs-HAR (human); assay: flow cytometry of transfected hMSCs incubated with 20 ng/mL FITC-labeled SDF-1; printed label repeats hCXCR4/BMP2Rs-HAR, taken as a misprint for the hCXCR2/BMP2Rs-HAR control

“stromal cell derived factor 1 (SDF-1, Peprotech) (from UniProt P48061 22-89) (ligand)” gave a GATA4 mRNA (qRT-PCR), fold-change vs. control (none-engineered group) [1] of 3.91 fold-change, a Nkx2.5 mRNA (qRT-PCR), fold-change vs. control (none-engineered group) [1] of 9.07 fold-change and a cTnI mRNA (qRT-PCR), fold-change vs. control (none-engineered group) [1] of 3.25 fold-change. For the same substance, the cTnT mRNA (qRT-PCR), fold-change vs. control (none-engineered group) [1] was 2.53 fold-change, the expression of ALK3 (flow cytometry) [1] was 88.3% and the expression of cTnI protein (flow cytometry) [1] was 88.7%. It also gave an expression of cTnT protein (flow cytometry) [1] of 97.4% and an expression of phospho-Smad1/5 (flow cytometry) [1] of 89.2%.

For “FITC-labeled recombinant human SDF-1 (from UniProt P48061 22-89) (ligand)”, the percent of cells with FITC-conjugated SDF-1 detected [2] was 15.3%.
